ChEMBL document CHEMBL4732158, “Bicyclic Ligand-Biased Agonists of S1P: Exploring Side Chain Modifications to Modulate the PK, PD, and Safety Profiles” (J Med Chem, 2021)

Sequences of proteins named here, by UniProt entry; tags and fusion partners are left off.
UniProt P21453, whole entry: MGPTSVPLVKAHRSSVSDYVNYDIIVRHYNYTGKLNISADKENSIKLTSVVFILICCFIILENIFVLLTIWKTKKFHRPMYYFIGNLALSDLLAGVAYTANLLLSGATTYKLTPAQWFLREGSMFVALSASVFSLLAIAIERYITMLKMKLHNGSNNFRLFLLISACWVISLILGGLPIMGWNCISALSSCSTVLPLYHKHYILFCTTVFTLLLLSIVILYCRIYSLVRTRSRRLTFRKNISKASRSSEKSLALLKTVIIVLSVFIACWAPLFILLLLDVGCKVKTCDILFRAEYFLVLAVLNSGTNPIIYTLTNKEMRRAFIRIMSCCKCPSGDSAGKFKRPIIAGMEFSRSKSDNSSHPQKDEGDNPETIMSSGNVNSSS

Columns and labels:
[1] = molecular target: T1, Sphingosine 1-phosphate receptor 1 (Homo sapiens, UniProt P21453); assay: Agonist activity at human recombinant S1P1 expressed in CHO cells assessed as stimulation of ERK phosphorylation incubated for 7 mins by microplate reader analysis relative to S1P; type: cell-based; settings: filed as agonist
[2] = molecular target: T1, Sphingosine 1-phosphate receptor 1; assay: Displacement of [33P]-SIP from human recombinant S1P1 expressed in CHO cell membranes measured after 45 mins by TopCount scintillation counting method relative to control; settings: Cell membrane, filed as agonist
[3] = molecular target: T1, Sphingosine 1-phosphate receptor 1; assay: Agonist activity at human recombinant C-terminal GFP-fused S1P1 expressed in CHO cells assessed as induction of receptor internalization incubated for 50 mins by fluorescence based confocal laser scanning microscopic analysis relative to control; type: cell-based; settings: filed as agonist

SMILES	Rmax [1] [%]	Rmax [2] [%]	Rmax [3] [%]
COCCCCC[C@@H]1CCc2cc([C@H]3CC[C@](N)(COP(=O)(O)O)C3)ccc2C1	100	98	77
CCOCCC[C@H]1CCc2cc([C@H]3CC[C@](N)(COP(=O)(O)O)C3)ccc2C1	99	98	53
